Amino acid sequences for entries named in this document (tags omitted). A change or cut given only in a name is not applied to a line headed by its entry.
UniProt P41145: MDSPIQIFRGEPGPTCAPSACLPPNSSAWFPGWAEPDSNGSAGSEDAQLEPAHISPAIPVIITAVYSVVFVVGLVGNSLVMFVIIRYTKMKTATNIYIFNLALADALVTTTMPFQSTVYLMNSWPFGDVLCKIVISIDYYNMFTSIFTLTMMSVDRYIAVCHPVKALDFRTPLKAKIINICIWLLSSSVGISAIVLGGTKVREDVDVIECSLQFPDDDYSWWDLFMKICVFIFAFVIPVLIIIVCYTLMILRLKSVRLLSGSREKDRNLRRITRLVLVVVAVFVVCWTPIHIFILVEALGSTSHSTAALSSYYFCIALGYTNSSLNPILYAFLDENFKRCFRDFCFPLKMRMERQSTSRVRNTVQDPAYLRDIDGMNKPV
UniProt P35372, whole entry: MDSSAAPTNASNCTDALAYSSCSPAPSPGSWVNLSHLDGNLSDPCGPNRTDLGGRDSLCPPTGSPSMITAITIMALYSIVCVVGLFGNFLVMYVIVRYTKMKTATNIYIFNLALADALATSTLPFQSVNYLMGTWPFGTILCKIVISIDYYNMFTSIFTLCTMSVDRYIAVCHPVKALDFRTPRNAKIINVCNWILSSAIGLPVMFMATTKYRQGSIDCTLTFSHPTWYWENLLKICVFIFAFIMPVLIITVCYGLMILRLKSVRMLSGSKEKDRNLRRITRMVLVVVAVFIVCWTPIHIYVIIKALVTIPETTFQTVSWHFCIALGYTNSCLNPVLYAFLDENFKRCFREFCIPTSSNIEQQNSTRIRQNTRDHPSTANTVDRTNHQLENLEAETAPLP

In ChEMBL document CHEMBL2046406 (J Med Chem, 2012):

Key:
[1] = target: Kappa-type opioid receptor (Homo sapiens, UniProt P41145); experiment: biochemical; format: cell-based, CHO
[2] = target: T1, Mu-type opioid receptor (Homo sapiens, UniProt P35372); experiment: biochemical; format: cell-based, CHO
[3] = species on record: Homo sapiens; experiment: Selectivity index, ratio of inhibition of human delta opioid receptor to inhibition of human mu opioid receptor
[4] = species on record: Homo sapiens; experiment: Selectivity index, ratio of inhibition of human kappa opioid receptor to inhibition of human mu opioid receptor
[5] = target: T1, Mu-type opioid receptor; experiment: Agonist activity at human mu opioid receptor expressed in CHO cells assessed as stimulation of […]GTPgammaS binding after 60 mins by scintillation counting; format: functional, cell-based
[6] = target: T1, Mu-type opioid receptor; experiment: Agonist activity at human mu opioid receptor expressed in CHO cells assessed as stimulation of […]GTPgammaS binding after 60 mins by scintillation counting relative to control; format: functional, cell-based
Method in brief: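 Membranes from CHO cells stably expressing human KOR (15 μg protein per tube) or MOR (7.5 μg protein per tube). Nonspecific binding with 10 μM GTPγS. Filtration, then scintillation counting. Triplicate, at least three experiments.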

Structure (SMILES) | Ki [2] [µM] | Selectivity ratio [3] | Selectivity ratio [4] | further results
COc1ccc2c3c1O[C@H]1C(=O)CC[C@H]4[C@@H](C2)N(C)CC[C@]314 [HYDROCODONE] |  |  |  | Ki [1]: 0.26 µM
COc1cccc(CNc2ccc3c4c2O[C@H]2[C@@H](O)C=C[C@H]5[C@@H](C3)N(C)CC[C@@]452)c1 | 0.045 |  |  | 
CN1CC[C@]23c4c5ccc(NCc6ccccc6O)c4O[C@H]2[C@@H](O)C=C[C@H]3[C@H]1C5 | 0.013 |  |  | 
COc1ccccc1CNc1ccc2c3c1O[C@H]1[C@@H](O)C=C[C@H]4[C@@H](C2)N(C)CC[C@@]341 | 0.0085 | 16 | > 1200 | EC50 [5]: 0.21 µM; Emax [6]: 81%
CN1CC[C@]23CCCC[C@H]2[C@H]1Cc1ccc(O)cc13 |  | 11 | 20 | 
